Tested on: cytotoxic factors (free fatty acids) of intestinal homogenates
Experiment: Cell death caused by rat small intestine homogenates
Assay type: cell-based
Conditions: addition of albumin not previously digested with protease
Description: Using a fluorescent substrate, the inventors found high levels of lipase activity in intestinal homogenates and cytotoxic levels of free fatty acids. […] Breakdown of free fatty acid binding proteins by proteases causes release of free fatty acids to act as powerful cytotoxic mediators.

In the case of albumin, the cell death is reported as “prevented cell death”.
